Laboratory results as given in ChEMBL document CHEMBL2021829, “Design, Synthesis and Biological Evaluation of a Series of Novel Axl Kinase Inhibitors” (ACS Med Chem Lett, 2011).

What was measured:
[1] = target: T1, Tyrosine-protein kinase receptor UFO (Homo sapiens, UniProt P30530); assay: Inhibition of AXL in human PSN1 cells assessed as decrease in GAS6-induced phospho-AXL level after 2 hrs by EILSA; format: cell-based
T1 sequence (P30530 whole entry): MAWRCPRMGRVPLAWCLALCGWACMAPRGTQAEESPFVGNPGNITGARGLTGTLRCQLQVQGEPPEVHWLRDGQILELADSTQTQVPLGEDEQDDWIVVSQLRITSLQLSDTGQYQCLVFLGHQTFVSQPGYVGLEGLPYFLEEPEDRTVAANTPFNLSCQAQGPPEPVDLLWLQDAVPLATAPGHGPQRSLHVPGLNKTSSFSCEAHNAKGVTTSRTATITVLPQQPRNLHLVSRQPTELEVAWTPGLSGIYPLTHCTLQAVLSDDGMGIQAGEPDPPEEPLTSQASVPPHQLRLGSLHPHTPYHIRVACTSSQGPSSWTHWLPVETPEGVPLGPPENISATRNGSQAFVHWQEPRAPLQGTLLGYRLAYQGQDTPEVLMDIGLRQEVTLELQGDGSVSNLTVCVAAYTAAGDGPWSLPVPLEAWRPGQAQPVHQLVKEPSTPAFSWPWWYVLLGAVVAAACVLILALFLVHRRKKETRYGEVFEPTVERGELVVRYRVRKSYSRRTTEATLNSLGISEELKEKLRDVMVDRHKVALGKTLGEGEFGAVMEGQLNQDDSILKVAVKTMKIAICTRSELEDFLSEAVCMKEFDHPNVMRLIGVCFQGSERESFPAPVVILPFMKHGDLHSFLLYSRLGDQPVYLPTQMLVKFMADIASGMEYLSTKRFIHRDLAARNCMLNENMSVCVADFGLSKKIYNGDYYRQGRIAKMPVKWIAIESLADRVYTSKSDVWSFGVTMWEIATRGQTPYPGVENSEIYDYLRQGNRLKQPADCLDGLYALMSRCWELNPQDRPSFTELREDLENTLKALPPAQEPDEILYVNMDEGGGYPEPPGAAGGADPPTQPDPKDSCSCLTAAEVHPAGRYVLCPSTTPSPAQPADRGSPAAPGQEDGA

[2] = target: T1, Tyrosine-protein kinase receptor UFO
[3] = target: T1, Tyrosine-protein kinase receptor UFO; assay: Inhibition of AXL-mediated AKT Ser473 phosphorylation in human PSN1 cells assessed as decrease in GAS6-induced phospho-AKT level after 2 hrs by ELISA; format: cell-based
PSN1 = assay: Cytotoxicity against human PSN1 cells after 96 hrs by ATP-lite luminescence assay; format: functional, cell-based; conditions: PSN1, 96 h

| SMILES | EC50 [1] [nM] | IC50 [2] [nM] | EC50 [3] [nM] | IC50 (PSN1) [nM] |
| --- | --- | --- | --- | --- |
| CN1CCN(Cc2ccc(Nc3ncc(Cl)c(Nc4ccccc4S(=O)(=O)N(C)C)n3)cc2)CC1 [DUBERMATINIB] | 222 | 27 | 305 |  |
| CN1CCC(N(C)c2ccc(Nc3ncc(Cl)c(Nc4ccccc4S(=O)(=O)N(C)C)n3)cc2)CC1 |  |  |  | 410 |
